Measured values taken from PubChem BioAssay AID651999 (Sanford-Burnham Center for Chemical Genomics, 2013).
This is a selection; strong and weak results do not stand in their true shares. Calls of active or inactive are those of the source.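 How the source made its calls: active means pattern-corrected inhibition above about 35%, with an unprinted fluorescence ratio check between 0.5 and 1.5 (limit read from the data, passing the limit was not always enough); inactive means the rest.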

Protein sequences, listed by entry. Tags and fused reporters are not part of them.
UniProt Q92905, whole entry: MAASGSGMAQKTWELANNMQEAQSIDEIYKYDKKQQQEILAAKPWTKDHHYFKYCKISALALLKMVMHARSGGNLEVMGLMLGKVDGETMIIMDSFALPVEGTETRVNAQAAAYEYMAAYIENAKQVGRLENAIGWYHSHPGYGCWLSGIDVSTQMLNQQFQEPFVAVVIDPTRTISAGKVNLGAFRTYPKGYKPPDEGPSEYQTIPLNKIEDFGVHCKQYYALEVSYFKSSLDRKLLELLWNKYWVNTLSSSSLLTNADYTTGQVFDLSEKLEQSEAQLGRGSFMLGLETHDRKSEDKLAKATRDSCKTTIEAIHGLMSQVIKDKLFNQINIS

The molecules below were run against COP9 signalosome complex subunit 5 (Homo sapiens) (UniProt Q92905) (assay: inhibitors of CSN-mediated cullin deneddylation, primary screen, biochemical, fluorescence polarization, uHTS (AID 651999;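 further: 0% = enzyme with substrate and 100% = substrate without enzyme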)). Settings: Purified CSN, SCF-Nedd8-OG deneddylation, at 12.5 µM, active compounds read high.
Summary of the method: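 Test system: Human Csn5 produced in HEK293T cells | Compound: 12.5 µM single point | Times: 90 min, room temperature | Signal: Fluorescence polarization readout | Read-out basis: % inhibition of substrate cleavage by Csn5 | Controls: no-enzyme wells high, enzyme-with-substrate wells low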
In the case of `CCC(=O)N(c1ccccc1)C1(COC)CCN(CCn2nnn(CC)c2=O)CC1`, the inhibition is reported as inactive: 2.25%. `CCC(=O)N(c1ccccc1)C1(COC)CCN(CCc2cccs2)CC1` was tested, and the inhibition was inactive: 0.57%.
